The target in one assay is His6-TEV-PPARγ-(234-505) (Homo sapiens, UniProt P37231). Briefly: TR-FRET Assay to Measure Co-R Peptide Recruitment to PPARγ.
The subject of a further assay is UM-UC-9 engineered cells. Briefly: Cell proliferation / short-term viability assay, CellTiter-Glo 144 h.
Where [1] appears, read: read-out: TR-FRET i-Ag, Co-R peptide (SMRT-ID2) recruitment, top final concentration 20 μM.
Setting [2] is: read-out: CTGlo 144 h UMUC9.5, G150.

Protein sequences, listed by entry. Tags and fused reporters are not part of them. Residues count along the entry.
UniProt P37231, 234-505 limits assumed: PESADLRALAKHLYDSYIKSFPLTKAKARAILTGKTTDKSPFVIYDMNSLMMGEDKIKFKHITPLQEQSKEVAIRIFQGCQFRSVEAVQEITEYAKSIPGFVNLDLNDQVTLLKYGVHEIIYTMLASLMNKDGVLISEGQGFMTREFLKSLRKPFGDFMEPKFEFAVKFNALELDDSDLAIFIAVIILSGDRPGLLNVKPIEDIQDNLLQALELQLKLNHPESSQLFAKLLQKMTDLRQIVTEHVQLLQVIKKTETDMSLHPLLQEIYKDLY

Where two headings read alike, the source gives them in different places. Bounds are passed on as bounds.

As for `CCN1CC(NC(=O)[C@@H]2C[C@H]3CC[C@@H](C2)N3C(=O)c2cc(-c3cc(OC)ncc3F)[nH]n2)CCC1C(F)(F)F` (single isomer, unassigned) [Example 299-A], on His6-TEV-PPARγ-(234-505) (setting [1]), the AC50 came out at 23.5 nM. Further, the IC50 in the assay on UM-UC-9 engineered cells (setting [2]) worked out at 95.5 nM.

As for `COCC(F)(F)C1(O)CCC(NC(=O)[C@@H]2CCN(C(=O)c3cc(-c4cc(OC)ncc4F)[nH]n3)C3(CC3)C2)CC1` (single isomer, unassigned) [Example 369-A], on His6-TEV-PPARγ-(234-505) (setting [1]), the AC50 is 5.4 nM. Besides, in the assay on UM-UC-9 engineered cells (setting [2]), the IC50 stood at 5.4 nM.

Consider `COc1cc(-c2cc(C(=O)N3CC[C@H](C(=O)NC4CCC(O)(C(C)(F)F)CC4)CC34CC4)n[nH]2)c(F)cn1` (single isomer, unassigned) [Example 375-A], for which the AC50 on His6-TEV-PPARγ-(234-505) (setting [1]) turned out to be 158 nM. In the assay with UM-UC-9 engineered cells (setting [2]), the IC50 was 231 nM.

Take `COc1cc(-c2cc(C(=O)N3[C@@H]4CC[C@H]3C[C@H](C(=O)NC3CCC(C(F)(F)F)OC3)C4)n[nH]2)c(F)cn1` (single isomer, unassigned) [Example 280-C]: on His6-TEV-PPARγ-(234-505) (setting [1]), the AC50 came to 101 nM. Moreover, the IC50 in the assay on UM-UC-9 engineered cells (setting [2]) worked out at 283 nM.

For the molecule `COc1cc(-c2cc(C(=O)N3CC[C@H](C(=O)NC4CN(c5cnc(C)cn5)CC4(F)F)CC34CC4)n[nH]2)c(F)cn1` (single isomer, unassigned) [Example 490-B], at His6-TEV-PPARγ-(234-505) (setting [1]), the AC50 is 9.7 nM. In addition, the IC50 in the assay on UM-UC-9 engineered cells (setting [2]) was found to be 77.8 nM.

For the molecule `COc1cc(-c2cc(C(=O)N3[C@@H]4CC[C@H]3C[C@H](C(=O)NC3CCC(C(F)(F)F)N(CC(C)(C)F)C3)C4)n[nH]2)c(F)cn1` (single isomer, unassigned) [Example 326-A], the AC50 at His6-TEV-PPARγ-(234-505) (setting [1]) was 88.5 nM. Further, in the assay on UM-UC-9 engineered cells (setting [2]), the IC50 stood at 93.2 nM.

Consider `Cc1cc(-c2cc(C(=O)N3CCC(C(=O)NC4CCC5(CC4)OCCC5(F)F)CC34CC4)n[nH]2)c(F)cn1` (single isomer, unassigned) [Example 405], for which the AC50 on His6-TEV-PPARγ-(234-505) (setting [1]) was 27.9 nM. Moreover, the IC50 in the assay on UM-UC-9 engineered cells (setting [2]) was found to be 8.3 nM.

On to `COc1cc(-c2cc(C(=O)N3CCC(C(=O)NC4CCC(C(F)F)CC4)CC3)n[nH]2)c(F)cn1` (single isomer, unassigned), for which the AC50 at His6-TEV-PPARγ-(234-505) (read-out: TR-FRET i-Ag, Co-R peptide (SMRT-ID2) recruitment, top final concentration 20 μM, listed as 104b) turned out to be 47.6 nM. Besides, the IC50 with UM-UC-9 engineered cells (read-out: CTGlo 144 h UMUC9.5, G150, listed as 104a) was more than 10000 nM; in the assay with UM-UC-9 engineered cells (read-out: CTGlo 144 h UMUC9.5, G150, listed as 104b), 98.6 nM.

With `CCN1CC(NC(=O)[C@@H]2C[C@H]3CC[C@@H](C2)N3C(=O)c2cc(-c3cc(OC)ncc3F)[nH]n2)CCC1C(F)(F)F` (single isomer, unassigned) [Example 299-B], the AC50 at His6-TEV-PPARγ-(234-505) (setting [1]) turned out to be 207 nM. For the same molecule, in the assay with UM-UC-9 engineered cells (setting [2]), the IC50 worked out at 587 nM.

Take `COc1cc(-c2cc(C(=O)N3CC[C@@H](C(=O)NC4CCC(C(F)(F)F)N(C)C4)CC34CC4)n[nH]2)c(F)cn1` (single isomer, unassigned) [Example 322-B]: at His6-TEV-PPARγ-(234-505) (setting [1]), the AC50 worked out at 436 nM. Also, in the assay with UM-UC-9 engineered cells (setting [2]), the IC50 worked out at 670 nM.

With `COc1cc(-c2cc(C(=O)N3[C@@H]4CC[C@H]3C[C@H](C(=O)NC3CCC(C(F)(F)F)N(CC(C)(C)F)C3)C4)n[nH]2)c(F)cn1` (single isomer, unassigned) [Example 326-C], the AC50 at His6-TEV-PPARγ-(234-505) (setting [1]) turned out to be 156 nM. In addition, the IC50 in the assay on UM-UC-9 engineered cells (setting [2]) was 287 nM.

As to `COc1cc(-c2cc(C(=O)N3CC[C@H](C(=O)NC4CCN(c5cccnc5)C4)CC34CC4)n[nH]2)c(F)cn1` (single isomer, unassigned) [Example 390-A], the AC50 at His6-TEV-PPARγ-(234-505) (setting [1]) was found to be 6.8 nM. In the assay on UM-UC-9 engineered cells (setting [2]), the IC50 worked out at 5.6 nM.

Turning to `COc1ncc(F)c(-c2cc(C(=O)N3CCC(C(=O)N[C@H]4CC[C@@](O)(C(F)(F)F)CC4)CC34CC4)n[nH]2)c1C` (single isomer, unassigned) [Example 493-B], at His6-TEV-PPARγ-(234-505) (setting [1]), the AC50 was 101 nM. For the same molecule, the IC50 in the assay with UM-UC-9 engineered cells (setting [2]) was 484 nM.

Take `COc1cc(-c2cc(C(=O)N3CC[C@H](C(=O)NC4CCOc5ccc(C)nc54)CC34CC4)n[nH]2)c(F)cn1` (single isomer, unassigned) [Example 380-A]: on His6-TEV-PPARγ-(234-505) (setting [1]), the AC50 was 19.3 nM. The IC50 in the assay with UM-UC-9 engineered cells (setting [2]) turned out to be 22.6 nM.

Turning to `COc1cc(-c2cc(C(=O)N3CC[C@H](C(=O)NC4CCN(C5COC5)C4)CC34CC4)n[nH]2)c(F)cn1` (single isomer, unassigned) [Example 396-A], on His6-TEV-PPARγ-(234-505) (setting [1]), the AC50 worked out at 66.2 nM. Also, the IC50 with UM-UC-9 engineered cells (setting [2]) is 254 nM.

For `COc1cc(-c2cc(C(=O)N3CC[C@H](C(=O)NC4CCC(O)(C(F)(F)F)CC4O)CC34CC4)n[nH]2)c(F)cn1` (single isomer, unassigned) [Example 504-D], the AC50 at His6-TEV-PPARγ-(234-505) (setting [1]) is 2.5 nM. The IC50 in the assay with UM-UC-9 engineered cells (setting [2]) stood at 74.7 nM.

Take `COc1cc(-c2cc(C(=O)N3CC[C@H](C(=O)NC4CN(CC(C)(C)F)CC4(F)F)CC34CC4)n[nH]2)c(F)cn1` (single isomer, unassigned) [Example 379-A]: the AC50 at His6-TEV-PPARγ-(234-505) (setting [1]) was determined as 32.1 nM. Moreover, the IC50 in the assay on UM-UC-9 engineered cells (setting [2]) turned out to be 57.6 nM.

In the case of `CC(O)c1cc(-c2cc(C(=O)N3CCC(C(=O)NCc4ncc(F)cc4Cl)CC34CC4)n[nH]2)c(F)cn1` (single isomer, unassigned) [Example 478-A], the AC50 at His6-TEV-PPARγ-(234-505) (setting [1]) stood at 40 nM. Besides, the IC50 in the assay with UM-UC-9 engineered cells (setting [2]) came to 291 nM.

For the molecule `COc1cc(-c2cc(C(=O)N3CCC(C(=O)N[C@H]4CC[C@@](OC)(C(F)(F)F)CC4)CC34CC4)n[nH]2)c(F)cn1` (single isomer, unassigned) [Example 324-A], the AC50 at His6-TEV-PPARγ-(234-505) (setting [1]) worked out at 70.2 nM. Also, in the assay with UM-UC-9 engineered cells (setting [2]), the IC50 is 54.7 nM.

With `COc1cc(-c2cc(C(=O)N3CC[C@H](C(=O)NC4CCN(c5ccc(C#N)cn5)C4)CC34CC4)n[nH]2)c(F)cn1` (single isomer, unassigned) [Example 489-B], the AC50 at His6-TEV-PPARγ-(234-505) (setting [1]) was 6 nM. Further, the IC50 with UM-UC-9 engineered cells (setting [2]) amounted to 465 nM.

On to `COc1cc(-c2cc(C(=O)N3CC[C@H](C(=O)NCc4ncc(N5CCNC6CC65)cn4)CC34CC4)n[nH]2)c(F)cn1` (single isomer, unassigned) [Example 469-B], for which the AC50 at His6-TEV-PPARγ-(234-505) (setting [1]) amounted to 115 nM. Also, the IC50 in the assay with UM-UC-9 engineered cells (setting [2]) amounted to 9900 nM.

Take `CCN1CC(NC(=O)[C@@H]2C[C@H]3CC[C@@H](C2)N3C(=O)c2cc(-c3cc(OC)ncc3F)[nH]n2)CCC1C(F)(F)F` (single isomer, unassigned) [Example 299-C]: the AC50 on His6-TEV-PPARγ-(234-505) (setting [1]) stood at 8.3 nM. Besides, the IC50 with UM-UC-9 engineered cells (setting [2]) stood at 50.7 nM.

With `COc1cc(-c2cc(C(=O)N3CC[C@H](C(=O)NC4CN(c5cnc(C)cn5)CC4(F)F)CC34CC4)n[nH]2)c(F)cn1` (single isomer, unassigned) [Example 490-A], the AC50 on His6-TEV-PPARγ-(234-505) (setting [1]) is 2.3 nM. Moreover, in the assay with UM-UC-9 engineered cells (setting [2]), the IC50 is 14.8 nM.

For `COc1cc(-c2cc(C(=O)N3CCC(C(=O)N[C@H]4CC[C@@](OCCO)(C(F)(F)F)CC4)CC34CC4)n[nH]2)c(F)cn1` (single isomer, unassigned) [Example 330-B], the AC50 on His6-TEV-PPARγ-(234-505) (setting [1]) stood at 6.4 nM. Besides, in the assay on UM-UC-9 engineered cells (setting [2]), the IC50 worked out at 1.1 nM.

For the molecule `COc1cc(-c2cc(C(=O)N3C4CCC3CC(C(=O)NC3CCC(C(F)(F)F)N(C)C3)C4)n[nH]2)c(F)cn1` (single isomer, unassigned) [Example 306-C], the AC50 at His6-TEV-PPARγ-(234-505) (setting [1]) was determined as 58.6 nM. Besides, the IC50 with UM-UC-9 engineered cells (setting [2]) was 268 nM.

(Values after US12606541B2, “PPARg modulators and methods of use” (Eisai R&D Management Co., Ltd., priority 2020, dated 2026).)
